From publication PMC4382718 (Carbohydrate research, 2015) come the findings set out here.

The target in assay [1] is T1, dGMIIb (Drosophila melanogaster Co(II)-activated Golgi α-mannosidase IIb) (Drosophila melanogaster, UniProt Q9VF33).
T1 sequence (Q9VF33 31-1249): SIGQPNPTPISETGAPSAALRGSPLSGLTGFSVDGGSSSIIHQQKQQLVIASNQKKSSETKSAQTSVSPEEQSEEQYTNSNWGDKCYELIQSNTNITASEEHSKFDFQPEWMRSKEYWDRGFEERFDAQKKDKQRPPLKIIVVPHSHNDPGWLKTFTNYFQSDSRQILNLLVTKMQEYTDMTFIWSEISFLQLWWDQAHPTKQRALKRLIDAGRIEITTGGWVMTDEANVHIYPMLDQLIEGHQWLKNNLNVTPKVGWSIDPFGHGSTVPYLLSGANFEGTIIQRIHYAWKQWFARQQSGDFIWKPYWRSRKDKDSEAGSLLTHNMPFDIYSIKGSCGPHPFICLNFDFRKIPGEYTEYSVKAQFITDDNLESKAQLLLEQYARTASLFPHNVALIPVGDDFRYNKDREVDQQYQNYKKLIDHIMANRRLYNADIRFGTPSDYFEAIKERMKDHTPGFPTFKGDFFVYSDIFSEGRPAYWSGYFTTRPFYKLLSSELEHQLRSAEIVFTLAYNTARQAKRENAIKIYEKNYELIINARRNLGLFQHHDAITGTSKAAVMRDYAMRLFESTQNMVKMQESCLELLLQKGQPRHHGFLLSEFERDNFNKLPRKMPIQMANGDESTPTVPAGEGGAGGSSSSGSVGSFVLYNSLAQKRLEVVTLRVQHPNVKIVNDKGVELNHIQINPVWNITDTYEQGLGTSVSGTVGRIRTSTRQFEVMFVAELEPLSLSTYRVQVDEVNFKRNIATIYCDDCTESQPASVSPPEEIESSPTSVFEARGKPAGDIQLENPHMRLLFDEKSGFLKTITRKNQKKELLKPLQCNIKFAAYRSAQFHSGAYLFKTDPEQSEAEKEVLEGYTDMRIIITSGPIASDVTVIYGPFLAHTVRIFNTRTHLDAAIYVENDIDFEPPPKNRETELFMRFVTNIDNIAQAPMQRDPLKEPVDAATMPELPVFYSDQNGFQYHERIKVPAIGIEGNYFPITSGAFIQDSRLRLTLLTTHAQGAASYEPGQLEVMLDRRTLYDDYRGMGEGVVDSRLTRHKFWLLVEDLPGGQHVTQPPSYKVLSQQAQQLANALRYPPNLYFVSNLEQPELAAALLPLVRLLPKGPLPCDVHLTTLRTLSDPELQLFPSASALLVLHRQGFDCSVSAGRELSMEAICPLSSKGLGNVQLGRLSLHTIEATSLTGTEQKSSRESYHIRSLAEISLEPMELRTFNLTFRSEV
Kind of assay: Class II α-mannosidase inhibition assay. Format: biochemical.

The target of assay [2] is T2, dLManII (Drosophila melanogaster lysosomal α-mannosidase II) (Drosophila melanogaster, UniProt Q9VKV1).
T2 sequence (Q9VKV1 25-1080): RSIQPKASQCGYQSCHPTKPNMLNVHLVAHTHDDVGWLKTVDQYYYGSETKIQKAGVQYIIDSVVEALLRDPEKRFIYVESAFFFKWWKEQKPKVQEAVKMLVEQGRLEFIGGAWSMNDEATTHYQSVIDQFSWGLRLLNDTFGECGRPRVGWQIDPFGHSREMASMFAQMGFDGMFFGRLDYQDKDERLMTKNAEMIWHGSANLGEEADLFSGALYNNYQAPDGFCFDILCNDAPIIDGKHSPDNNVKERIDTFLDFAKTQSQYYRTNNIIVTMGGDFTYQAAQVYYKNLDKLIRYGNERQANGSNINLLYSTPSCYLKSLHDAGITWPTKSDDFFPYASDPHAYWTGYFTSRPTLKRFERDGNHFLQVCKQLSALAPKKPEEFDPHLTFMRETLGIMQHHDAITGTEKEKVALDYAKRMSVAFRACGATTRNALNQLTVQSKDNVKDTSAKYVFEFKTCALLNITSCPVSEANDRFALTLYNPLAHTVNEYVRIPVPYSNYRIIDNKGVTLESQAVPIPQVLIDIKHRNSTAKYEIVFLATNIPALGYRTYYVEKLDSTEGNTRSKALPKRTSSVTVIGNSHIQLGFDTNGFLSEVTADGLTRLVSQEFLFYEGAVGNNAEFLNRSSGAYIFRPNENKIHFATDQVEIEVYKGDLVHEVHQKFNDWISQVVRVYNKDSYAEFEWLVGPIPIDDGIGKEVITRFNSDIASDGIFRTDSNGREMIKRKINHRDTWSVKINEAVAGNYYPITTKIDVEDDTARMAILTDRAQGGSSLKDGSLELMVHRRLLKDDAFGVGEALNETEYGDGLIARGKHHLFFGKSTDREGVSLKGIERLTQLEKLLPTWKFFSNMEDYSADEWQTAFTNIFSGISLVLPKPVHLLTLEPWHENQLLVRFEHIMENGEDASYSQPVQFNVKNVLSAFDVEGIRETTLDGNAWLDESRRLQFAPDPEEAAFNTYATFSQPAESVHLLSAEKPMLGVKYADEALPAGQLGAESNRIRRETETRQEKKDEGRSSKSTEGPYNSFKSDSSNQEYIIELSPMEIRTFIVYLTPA
Kind of assay: Class II α-mannosidase inhibition assay. Format: biochemical.

Take `O[C@H]1[C@H]2[C@H](O)CCCN2C[C@H]1O` [Swainsonine, reference compound]: the IC50 is 5 nM in assay [1] and 11 nM in assay [2].
